# Results as given in US20140234345A1, “NOVEL ANTI-CANCER ISOCARBOSTYRIL ALKALOID CONJUGATES” (priority 2011, published 2014).
# Experiment: Cell viability of healthy PBMC
# Description: All cell lines were plated in black, tissue culture treated, 96 well plates at a cell density of 1×10^5 celis/mL (1×10^4 cells/well). Cells were allowed 24 h to attach to the plate prior to being dosed with drug. […] Cells were allowed to incubate for 48 or 72 h. Following incubation cells were stained with Alamar Blue such that the final concentration of Alamar Blue in the test well was 10%. Cells were stained for 2 h and then fluorescence was measured on a Molecular Devices Analyst GT multimode plate reader using an excitation filter of 530/25 nm and an emission filter of 580/10 nm and a 561 nm dichroic mirror. Cell viability was expressed as a percentage of untreated control cells. Data are expressed as mean±standard error and are the average of four independent cell preparations.
# Healthy PBMC (Peripheral Blood Mononuclear Cells) were treated similarly to the above tumour cell line tests.
smiles,measurement,value
"O=C1N[C@@H]2C(=C[C@H](O)[C@@H](O)[C@H]2O)c2cc3c(c(O)c21)OCO3 [narciclasine, reference compound]",viability,~90%
same,viability at 2.265 µM,> 60%
